Drawing on patent US10336774B2, “N-azaspirocycloalkane substituted N-heteroaryl compounds and compositions for inhibiting the activity of SHP2” (NOVARTIS AG, priority 2014, dated 2019), this text covers IC50 for six compounds.

Protein sequences, listed by entry. Tags and fused reporters are not part of them.
UniProt Q06124, whole entry: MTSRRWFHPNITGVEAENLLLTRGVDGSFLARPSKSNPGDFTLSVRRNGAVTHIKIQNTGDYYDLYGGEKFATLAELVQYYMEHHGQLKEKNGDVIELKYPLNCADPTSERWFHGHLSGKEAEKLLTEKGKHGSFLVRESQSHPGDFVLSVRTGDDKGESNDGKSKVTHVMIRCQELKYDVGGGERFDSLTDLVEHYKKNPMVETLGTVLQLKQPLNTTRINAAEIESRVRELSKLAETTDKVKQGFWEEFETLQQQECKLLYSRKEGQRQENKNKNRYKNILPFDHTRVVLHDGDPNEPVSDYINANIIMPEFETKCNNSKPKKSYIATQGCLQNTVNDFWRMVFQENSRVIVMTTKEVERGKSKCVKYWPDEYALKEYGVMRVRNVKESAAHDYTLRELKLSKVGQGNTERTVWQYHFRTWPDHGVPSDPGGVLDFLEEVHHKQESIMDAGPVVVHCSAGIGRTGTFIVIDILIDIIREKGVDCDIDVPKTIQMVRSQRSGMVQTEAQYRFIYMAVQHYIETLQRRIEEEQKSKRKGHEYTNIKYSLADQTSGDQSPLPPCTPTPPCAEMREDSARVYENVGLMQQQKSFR

The target of this assay is SHP2 (Homo sapiens (Human), UniProt Q06124). As to the kind of experiment: SHP2 Allosteric Inhibition Assay. Type of assay: biochemical. The settings on record: 0.5 nM SHP2 activated with 0.5 μM peptide IRS1_pY1172(dPEG8)pY1222, surrogate substrate DiFMUP, fluorescence.

Each structure is given as a SMILES string.

For orientation: IC50 means the concentration that gives 50% inhibition. On to `Nc1nc(N2CC3(CCC3N)C2)cnc1Sc1cccc(Cl)c1Cl` (racemic) [8 P1], for which the 50% inhibitory concentration (IC50) was 17500 nM.
Same read-out and setting: to `Nc1nc(N2CC3(CCC3N)C2)cnc1Sc1cccc(Cl)c1Cl` (racemic) [8 P2] belongs 3310 nM; to `Nc1nc(N2CCC3(CCC3N)CC2)cnc1Sc1cccc(Cl)c1Cl` (single isomer, unassigned) [14 P1], 19 nM; to `Nc1nc(N2CCC3(CCC3N)CC2)cnc1Sc1cccc(Cl)c1Cl` (single isomer, unassigned) [14 P2], 414 nM.
Regarding `Nc1nc(N2CCC3(CCC(F)C3N)CC2)cnc1Sc1cccnc1C(F)(F)F` (single isomer, unassigned) [85 P1], the IC50 (tested form: HCl) turned out to be 100 nM. That is a sub-micromolar value.
For the compound `Nc1nc(N2CCC3(CCC(F)C3N)CC2)cnc1Sc1cccnc1C(F)(F)F` (single isomer, unassigned) [85 enant-P1], under “tested form: HCl”, the IC50 turned out to be 113 nM.
